# Key:
# Amino acid sequences for entries named in this document (tags omitted).
# UniProt P41143, whole entry, looked up: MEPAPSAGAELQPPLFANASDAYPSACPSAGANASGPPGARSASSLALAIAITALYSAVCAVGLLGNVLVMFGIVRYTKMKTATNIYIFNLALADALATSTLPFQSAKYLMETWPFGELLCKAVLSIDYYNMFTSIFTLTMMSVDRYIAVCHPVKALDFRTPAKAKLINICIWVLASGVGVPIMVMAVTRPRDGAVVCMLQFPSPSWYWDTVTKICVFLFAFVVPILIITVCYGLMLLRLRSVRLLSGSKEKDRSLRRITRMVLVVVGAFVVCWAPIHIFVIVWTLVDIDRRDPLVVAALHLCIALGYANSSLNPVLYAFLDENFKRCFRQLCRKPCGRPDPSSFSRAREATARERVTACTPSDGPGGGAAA
# UniProt P35372, whole entry, looked up: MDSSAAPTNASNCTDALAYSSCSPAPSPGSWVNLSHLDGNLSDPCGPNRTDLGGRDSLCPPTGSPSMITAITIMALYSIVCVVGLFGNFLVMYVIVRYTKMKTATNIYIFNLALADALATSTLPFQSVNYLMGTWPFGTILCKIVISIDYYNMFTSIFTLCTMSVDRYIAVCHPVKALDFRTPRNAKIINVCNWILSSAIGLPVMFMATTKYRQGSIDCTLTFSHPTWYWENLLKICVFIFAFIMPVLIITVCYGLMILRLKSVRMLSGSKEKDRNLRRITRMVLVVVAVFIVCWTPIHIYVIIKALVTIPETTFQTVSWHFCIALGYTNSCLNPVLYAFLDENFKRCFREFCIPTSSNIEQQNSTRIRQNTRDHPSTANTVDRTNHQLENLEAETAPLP
# UniProt P33533, whole entry, looked up: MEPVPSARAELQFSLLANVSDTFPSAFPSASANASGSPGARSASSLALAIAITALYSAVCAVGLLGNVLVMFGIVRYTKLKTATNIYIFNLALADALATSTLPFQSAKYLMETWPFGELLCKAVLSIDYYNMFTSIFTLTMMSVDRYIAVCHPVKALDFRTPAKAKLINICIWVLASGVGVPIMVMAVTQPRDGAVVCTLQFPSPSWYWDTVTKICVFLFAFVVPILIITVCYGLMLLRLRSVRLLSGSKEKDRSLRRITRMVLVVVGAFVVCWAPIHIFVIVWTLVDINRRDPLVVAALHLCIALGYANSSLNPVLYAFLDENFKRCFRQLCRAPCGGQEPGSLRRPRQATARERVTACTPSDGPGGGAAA
# UniProt P33535, whole entry, looked up: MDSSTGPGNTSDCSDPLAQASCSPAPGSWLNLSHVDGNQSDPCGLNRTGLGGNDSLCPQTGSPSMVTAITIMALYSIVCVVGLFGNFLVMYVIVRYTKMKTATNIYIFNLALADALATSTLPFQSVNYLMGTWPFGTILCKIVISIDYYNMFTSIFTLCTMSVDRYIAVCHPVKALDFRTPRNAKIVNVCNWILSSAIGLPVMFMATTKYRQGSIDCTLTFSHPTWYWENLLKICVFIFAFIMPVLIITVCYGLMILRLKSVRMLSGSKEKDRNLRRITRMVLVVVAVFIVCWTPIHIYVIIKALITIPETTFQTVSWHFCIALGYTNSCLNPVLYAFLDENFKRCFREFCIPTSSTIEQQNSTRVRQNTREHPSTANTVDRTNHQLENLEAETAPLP
# UniProt P32300, whole entry, looked up: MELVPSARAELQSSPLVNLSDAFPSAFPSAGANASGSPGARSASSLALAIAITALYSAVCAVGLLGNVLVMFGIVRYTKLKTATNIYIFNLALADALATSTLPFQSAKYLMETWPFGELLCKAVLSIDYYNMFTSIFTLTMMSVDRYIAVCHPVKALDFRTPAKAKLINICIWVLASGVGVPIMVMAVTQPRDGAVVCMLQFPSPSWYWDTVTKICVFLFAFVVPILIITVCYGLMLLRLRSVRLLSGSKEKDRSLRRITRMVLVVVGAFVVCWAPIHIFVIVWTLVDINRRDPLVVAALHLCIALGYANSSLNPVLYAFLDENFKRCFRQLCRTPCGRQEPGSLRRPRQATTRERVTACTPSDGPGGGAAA
# UniProt P97266, whole entry, looked up: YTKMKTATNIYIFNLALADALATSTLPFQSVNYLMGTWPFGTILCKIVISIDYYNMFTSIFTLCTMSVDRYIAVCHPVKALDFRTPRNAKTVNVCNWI
# [1] = IC50 ratio of the compound (MVD/GPI)
# [2] = biological target: Opioid receptors; mu & delta (Homo sapiens) (UniProt P41143+P35372); assay: Selectivity ratio for delta and mu opioid receptors
# [3] = biological target: Delta-type opioid receptor (Rattus norvegicus) (UniProt P33533); assay: Inhibition of [3H]DSLET binding to rat brain membrane Opioid receptor delta 1 compared to [Leu5]-enkephalin
# [4] = biological target: Mu-type opioid receptor (Rattus norvegicus) (UniProt P33535); assay: Binding affinity towards Opioid receptor mu 1 in rat brain membrane using [3H]DAGO as radioligand and potency relative to [Leu5]-enkephalin was reported
# [5] = biological target: Delta-type opioid receptor (Mus musculus) (UniProt P32300); assay: Inhibitory activity towards electrically induced contractions in mouse vas deferens expressing delta opioid receptor relative to [Leu5]-enkephalin activity
# [6] = biological target: Mu-type opioid receptor (Cavia porcellus) (UniProt P97266); assay: Inhibitory activity towards electrically induced contractions in guinea pig ileum expressing Opioid receptor mu 1 was determined relative to the [Leu5]-enkephalin activity
# [7] = biological target: Mu-type opioid receptor (Rattus norvegicus) (UniProt P33535); assay: Binding affinity towards mu Opioid receptor in rat brain membrane using [3H]DAGO as radioligand and potency relative to [Leu5]-enkephalin was reported
# [8] = biological target: Mu-type opioid receptor (Cavia porcellus) (UniProt P97266); assay: Inhibitory activity towards Opioid receptor mu 1 using guinea pig ileum (GPI) assay was determined relative to the [Leu5]-enkephalin activity
# [9] = biological target: Delta-type opioid receptor (Homo sapiens, UniProt P41143); assay: Inhibitory activity towards delta Opioid receptor using guinea pig ileum (GPI) assay was determined relative to the [Leu5]-enkephalin activity; conditions: Cavia porcellus
# [10] = biological target: Mu-type opioid receptor (Cavia porcellus) (UniProt P97266); assay: Inhibitory activity towards electrically induced contractions in guinea pig ileum expressing mu opioid receptor was determined relative to the [Leu5]-enkephalin activity
SMILES,Ratio [1],Ratio [2],Relative potency [3],Relative potency [4],Relative potency [5],Relative potency [6],Relative potency [7],Relative potency [8],Relative potency [9],Relative potency [10]
CN1C(=O)[C@H](NC(=O)[C@@H](N)Cc2ccc(O)cc2)CCCNC(=O)C[C@@H](C(N)=O)NC(=O)[C@@H]1Cc1ccccc1,0.214,7.87,9e-05,0.00264,0.00826,0.0381,,,,
NC(=O)[C@@H]1CC(=O)NCCC[C@@H](NC(=O)[C@@H](N)Cc2ccc(O)cc2)C(=O)N[C@@H](C2CCCCC2)C(=O)N1,0.0902,8.02,0.000709,,0.00687,0.0134,0.0212,,,
NC(=O)[C@@H]1CC(=O)NCCC[C@@H](NC(=O)[C@@H](N)Cc2ccc(O)cc2)C(=O)N[C@H](Cc2ccccc2)C(=O)N1,,125,< 6.7e-07,0.0031,< 0.00132,< 0.0117,,,,
NC(=O)[C@@H]1CC(=O)NCCC[C@H](NC(=O)[C@@H](N)Cc2ccc(O)cc2)C(=O)N[C@@H](Cc2ccccc2)C(=O)N1,> 5.95,> 12.4,< 4.21e-05,,< 0.000114,0.0146,0.00195,,,
NC(=O)[C@@H]1CCCNC(=O)C[C@@H](NC(=O)[C@@H](N)Cc2ccc(O)cc2)C(=O)N[C@@H](Cc2ccccc2)C(=O)N1,16.4,138,0.00192,0.987,0.00133,0.471,,,,
NC(=O)[C@@H]1CSSC[C@@H](NC(=O)[C@@H](N)Cc2ccc(O)cc2)C(=O)N[C@@H](Cc2ccccc2)C(=O)N1,11.4,33.9,0.00678,0.857,,,,3.8,0.0154,
NC(=O)[C@@H]1CC(=O)NCCC[C@@H](NC(=O)[C@@H](N)Cc2ccc(O)cc2)C(=O)N[C@@H](Cc2ccc([N+](=O)[O-])cc2)C(=O)N1,> 43,18.5,0.0005,0.0345,< 0.000114,0.105,,,,
NC(=O)[C@@H]1CC(=O)NCCC[C@@H](NC(=O)[C@@H](N)Cc2ccc(O)cc2)C(=O)N[C@@H](CCc2ccccc2)C(=O)N1,12.3,71.3,0.00298,0.792,0.00832,2.22,,,,
NC(=O)[C@@H]1CCNC(=O)C[C@@H](NC(=O)[C@@H](N)Cc2ccc(O)cc2)C(=O)N[C@@H](Cc2ccccc2)C(=O)N1,7.28,168,0.000607,0.38,0.00562,0.882,,,,
NC(=O)[C@H]1CC(=O)NCCC[C@@H](NC(=O)[C@@H](N)Cc2ccc(O)cc2)C(=O)N[C@@H](Cc2ccccc2)C(=O)N1,7.61,19.4,0.006,0.435,0.00237,0.389,,,,
NC(=O)[C@@H]1CC(=O)NCCC[C@@H](NC(=O)[C@@H](N)Cc2ccc(O)cc2)C(=O)N[C@@H](Cc2ccccc2)C(=O)N1,107,213,0.00114,0.907,0.00294,,,,,6.8

# Reference: ChEMBL document CHEMBL1123894, “Structure-activity relationships of cyclic opioid peptide analogues containing a phenylalanine residue in the 3-position” (J Med Chem, 1987)
